Results on one substance are retold here after patent publication US11826399B2 (Eisai Inc., priority 2017, dated 2023).

Chains of the proteins cited; added tags and fusions are not shown. Residues count along the entry.
UniProt O14786, 22-923 limits assumed: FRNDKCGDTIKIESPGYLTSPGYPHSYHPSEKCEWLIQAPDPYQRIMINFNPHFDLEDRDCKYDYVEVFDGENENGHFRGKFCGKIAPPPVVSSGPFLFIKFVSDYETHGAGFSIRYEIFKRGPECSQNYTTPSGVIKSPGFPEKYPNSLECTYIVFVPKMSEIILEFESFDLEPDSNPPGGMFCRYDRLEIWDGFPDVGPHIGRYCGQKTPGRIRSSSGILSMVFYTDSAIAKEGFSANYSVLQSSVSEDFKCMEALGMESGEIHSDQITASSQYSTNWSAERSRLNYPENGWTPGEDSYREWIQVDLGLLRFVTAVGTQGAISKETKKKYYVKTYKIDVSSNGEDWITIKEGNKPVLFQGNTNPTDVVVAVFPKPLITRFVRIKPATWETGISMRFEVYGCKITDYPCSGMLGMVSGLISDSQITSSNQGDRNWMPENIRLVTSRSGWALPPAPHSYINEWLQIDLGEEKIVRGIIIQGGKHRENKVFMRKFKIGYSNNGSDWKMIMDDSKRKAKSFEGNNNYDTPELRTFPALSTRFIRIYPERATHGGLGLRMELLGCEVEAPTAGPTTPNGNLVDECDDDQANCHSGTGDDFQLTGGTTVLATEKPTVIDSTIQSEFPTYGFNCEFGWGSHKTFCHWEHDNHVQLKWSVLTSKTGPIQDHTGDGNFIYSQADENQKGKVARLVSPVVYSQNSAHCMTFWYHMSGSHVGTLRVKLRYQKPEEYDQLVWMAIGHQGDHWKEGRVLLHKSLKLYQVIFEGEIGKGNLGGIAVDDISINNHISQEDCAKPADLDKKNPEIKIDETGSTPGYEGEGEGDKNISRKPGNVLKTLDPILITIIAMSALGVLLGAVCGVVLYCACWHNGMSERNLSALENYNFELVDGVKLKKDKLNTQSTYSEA

The Kd is a measure of binding affinity in units of concentration.

In this assay the target is NRP1 (Homo sapiens, UniProt O14786). As to conditions: read-out: NRP1 Binding KD.

Take “Capped Capped NH2-M-C-M-P-C-F-T-T-D-H-Q-M-A-R-COOH Biotin [Peptide synthesis ER-1183034]”: the Kd came to 169 nM.
